# Values quoted from earlier work in US8802639B2, “RNA interference modulators of hedgehog signaling and uses thereof” (Curis, Inc., priority 2004, dated 2014).
# Tested on: embryonic prostate
# Details: W. Bushman, unpublished result; cited from earlier work
compound,measurement,value
CC1=C2C[C@H]3[C@@H](CC=C4C[C@@H](O)CC[C@@]43C)[C@@H]2CC[C@]12O[C@@H]1C[C@H](C)CN[C@H]1[C@H]2C [cyclopamine],growth and branching of embryonic prostate,inhibits growth and branching
